# In US20200038438A1, “ANGSTROM SILVER INJECTION FOR CANCER INHIBITION, PREPARATION METHOD AND APPLICATION THEREOF” (Shenzhen AMCAN Medical Biotechnology Limited, priority 2018, published 2020):
# Assays:
# [1] = tested on: human non-small cell lung cancer cells A549; test: CellTiter-Glo cell viability, 72 hours; type: cell-based; conditions: duplicate wells
# Description: (§1) A first exemplary embodiment is shown a detection of the angstrom silver on a proliferation influence of human non-small cell lung cancer cells A549 and human hepatocellular carcinoma cells HepG2.
# (§2) Reagents and consumables shown below: 1. HepG2, provided by HD Biosciences (Shanghai) Co., Ltd., and passed a mycoplasma detection; 2, F 12K culture medium, American Gibco, Art. No.: 21127-022; 3. EMEM culture medium, American ATCC, Art. No.: 30-2003; 4. Fetal bovine serum (FBS), American Hyclone, Art. No.: CH30160.03; 5. Penicillin-streptomycin liquid, American Invitrogen, Art. No.: CH15140-122; 6. DG-5 (25 Ang) and DG-5 solvents, DG-6 (25 Ang) and DG-6 solvents respectively provided by Shenzhen AMCAN Medical Biotechnology Limited; 7. STSP, UK Tocris, Cat#3259; 8. DMSO, American Sigma, Art. No.: D4540; 9. 96-well cell culture plate, American Corning, Art. No.: 3610; 10. CellTiter-Glo Luminescent Cell Viability Assay, American Promega, Art. No.: G7571; 11. Plate reader, American Perkin Elmer, EnVision Multilabel Plate Reader.
# (§3) Cell culture medium: 1. […]
# (§4) 3. […] At this time, the gradient concentration of a compound to be measured includes 150 ppm, 15 ppm, 1.5 ppm, 0.15 ppm and 0.015 ppm, which is a 2-by-compound solution to be used to treat cells.
# (§5) 4. […] At this time, the gradient concentration of the compound to be measured includes 2 μM, 200 nM, 20 nM, 2 nM and 0.2 nM, which is a 2-by-compound solution to be used to treat cells. […]
# (§6) 5. Placing the 96-well cell culture plate in a plate reader to analyze it, and setting it to read chemical luminescence and record data.
# (§7) Readout in each hole needs to be converted to a cell viability. The cell viability can be calculated by the following formula: […]
# (§8) The post-processing data will be used to perform nonlinear regression analysis using a GraphPad Prism 5 analysis software to obtain a dose-effect curve, at the same time, a half-killing concentration to the cell is obtained by calculating the compounds DG-5, DG-6 to be measured and the positive compound STSP.
# [2] = tested on: human hepatocellular carcinoma cells HepG2; test: CellTiter-Glo cell viability, 72 hours; type: cell-based; conditions: HepG2, 10 nM, duplicate wells
# Description: as §1, §2, §3, §4, §5, §6, §7, §8
smiles,measurement,setting,value
CN[C@@H]1C[C@H]2O[C@@](C)([C@@H]1OC)n1c3ccccc3c3c4c(c5c6ccccc6n2c5c31)C(=O)NC4 [STSP],Percentage of cell growth,"[1]; A549, 100 nM",31.2%
same,Percentage of cell growth,"[1]; A549, 1000 nM",12.1%
same,Percentage of cell growth,[2],78.5%
